The values that follow come from PMC11440776.

The target in the assay is tKeima (Montipora sp.) (UniProt Q1JV72). The experiment in a line: crystal structure.

Take “tKeima (from UniProt Q1JV72 1-222) (natural protein)”: the stoichiometry N was found to be 4.

For orientation: stoichiometry N means the number of molecules, sites or subunits per partner or assembly.
